These are literature values, as cited in patent US11667649B2 (dated 2023).

For the data set, the system named is ALK-positive NSCLC and other cancers. The note with it: treatment of ALK-positive NSCLC and other cancers; cited from earlier work.

In the case of `C[C@@H](Oc1cc(-c2cnn(C3CCNCC3)c2)cnc1N)c1c(Cl)ccc(F)c1Cl` [Crizotinib, crizotinib], the median progression-free survival is reported as 8-11 months and the overall response rate is 60-80%.
